Test results taken from patent publication US20250332096A1, “BEVERAGE FORMULATION AND METHOD OF PROMOTING CELLULAR HYDRATION BY ENHANCING INTRACELLULAR PERMEATION” (Eastpond Laboratories Limited, priority 2024, published 2025).

Experiment: Viscosity of test solutions
Type: physicochemical
Details: purified water, 2.00%
Experimental: 1:1 mol/mol stoichiometry complexes were prepared for the experiment. Nicotinic acid/alpha-CD complex was prepared by dissolving 11.22 g nicotinic acid and 98.63 g alpha-CD (89.66 g on dry basis) in 700 ml purified water. Nicotinamide/alpha-CD complex was prepared by dissolving 5.57 g nicotinamide and 49.3 g alpha-CD (44.4 g on dry basis) in 350 ml purified water and L-arginine/alpha-CD complex was prepared by dissolving 15.18 g L-arginine and 94.26 g alpha-CD (85.69 g on dry basis) in 700 ml purified water. Further, for all the three complexes, the liquid was frozen in dry ice bath and lyophilized. The dry lyophilizate was ground and sieved.
Clarity, pH, conductivity, density, viscosity, turbidity, surface tension and osmolality were determined in solutions prepared with purified water. The concentration noted for the complex solutions are indicating the actual alpha cyclodextrin content. Alpha & gamma cyclodextrin mix is a 50-50 weight % mixture of the two constituents and the percentage indicates the total cyclodextrin content.

Viscosity (25 C.): 1.01 cP
Compound: OC[C@H]1O[C@@H]2O[C@H]3[C@H](O)[C@@H](O)[C@@H](O[C@H]4[C@H](O)[C@@H](O)[C@@H](O[C@H]5[C@H](O)[C@@H](O)[C@@H](O[C@H]6[C@H](O)[C@@H](O)[C@@H](O[C@H]7[C@H](O)[C@@H](O)[C@@H](O[C@H]1[C@H](O)[C@H]2O)O[C@@H]7CO)O[C@@H]6CO)O[C@@H]5CO)O[C@@H]4CO)O[C@@H]3CO [Alpha Cyclodextrin, α-cyclodextrin]
